Literature values, collected in paper PMC9285861 (Biomacromolecules, 2019).

Tested on: HSA
Conditions: cited from earlier work

human Aβ1–42
share of plasma Aβ bound by HSA: 90%
